Assay results published in US20060293223A1 (Eli Lilly and Company Patent Division, priority 2003, published 2006).

Protein sequences, listed by entry. Tags and fused reporters are not part of them. Lines headed by an entry give the natural chain unless they say otherwise; changes in a name come on top.
UniProt P41968: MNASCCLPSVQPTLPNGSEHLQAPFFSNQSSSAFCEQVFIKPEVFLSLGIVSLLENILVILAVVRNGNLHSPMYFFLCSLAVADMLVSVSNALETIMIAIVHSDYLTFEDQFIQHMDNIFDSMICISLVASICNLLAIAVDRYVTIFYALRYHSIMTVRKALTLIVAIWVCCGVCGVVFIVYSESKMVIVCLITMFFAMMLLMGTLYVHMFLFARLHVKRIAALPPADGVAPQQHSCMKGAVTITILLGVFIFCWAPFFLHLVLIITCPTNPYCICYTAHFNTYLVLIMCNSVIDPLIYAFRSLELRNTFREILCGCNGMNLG

Each substance was assayed against human MC3R (Homo sapiens, UniProt P41968) (assay: Melanocortin receptor whole cell cAMP accumulation assay, MC3 (Table 2, MC3 Potency, printed as Ki)). Conditions: HEK 293 cells.
Type: cell-based

Substance	Ki [nM]
Ac-Tyr-Arg-cyclo[Cys-Glu-His-(4-OMe-D-Phe)-Arg-Trp-Cys]-NH2 [Compound 93]	16.7
Ac-Tyr-Arg-cyclo[Cys-Glu-His-D-Phe-Arg-Trp-Cys] alcohol [Compound 78]	≥ 500
Ac-Tyr-Arg-cyclo[Cys-Ser-His-D-Phe-Arg-Trp-Cys]-NH2 [Compound 21]	38.6
N-glutaryl-Tyr-Arg-cyclo[Cys-Glu-His-D-Phe-Arg-Trp-Cys]-OH [Compound 76]	≥ 500
Tyr-Arg-cyclo[Cys-Glu-His-D-Phe-Arg-Trp-Cys]-NH2 [Compound 68]	23.2
Ac-Tyr-Arg-cyclo[Cys-Asn-His-D-Phe-Arg-Trp-Cys]-NH2 [Compound 5]	48
Ac-Tyr-Arg-cyclo[Cys-Glu-(1-benzyl-His)-D-Phe-Arg-Trp-Cys]-NH2 [Compound 99]	210
N-hexanoyl-cyclo[hCys-His-D-Phe-Arg-Trp-penicillamine]-NH2 [Compound 170]	4.85
Ac-Tyr-Arg-cyclo[Cys-Glu-(2-pyrazine-Ala)-D-Phe-Arg-Trp-Cys]-NH2 [Compound 105]	≥ 500
Ac-Tyr-Arg-cyclo[Cys-Glu-(β-(2-furyl)-Ala)-D-Phe-Arg-Trp-Cys]-NH2 [Compound 110]	≥ 500
Ac-Tyr-Arg-cyclo[Cys-Glu-(1-Me-His)-(4-Br-D-Phe)-Arg-Trp-Cys]-NH2 [Compound 90]	16.8
Ac-Tyr-Arg-cyclo[Cys-Glu-(1-Me-D-His)-(4-F-D-Phe)-Arg-Trp-Cys]-NH2 [Compound 85]	≥ 500
cyclo[hCys-His-(4-F-D-Phe)-Arg-Trp-Cys]-NH2 [Compound 134]	7.19
Ac-Arg-cyclo[Cys-Glu-(1-Me-His)-D-Phe-Arg-Trp-Cys]-NH2 [Compound 51]	429
N-methyl-Tyr-Arg-cyclo[Cys-Met-His-D-Phe-Arg-Trp-Cys]-NH2 [Compound 17]	26.1
Ac-Tyr-Arg-cyclo[Cys-Glu-His-D-Phe-Arg-Trp-Cys]-Arg-Phe-NH2 [Compound 123]	13.4
Ac-Tyr-Arg-cyclo[D-Cys-Glu-His-D-Phe-Arg-Trp-Cys]-NH2 [Compound 80]	112
Ac-Tyr-Arg-cyclo[Cys-Glu-His-D-Phe-Arg-Trp-Cys]-OH [Compound 73]	411
Ac-Tyr-Arg-cyclo[Cys-Glu-(1-benzyl-D-His)-D-Phe-Arg-Trp-Cys]-NH2 [Compound 100]	≥ 500
Ac-cyclo[Cys-His-D-Phe-Arg-Trp-hCys]-NH2 [Compound 183]	360
Ac-Tyr-Arg-cyclo[Cys-Gln-His-D-Phe-Arg-Trp-Cys]-OH [Compound 9]	364
Ac-Tyr-Arg-cyclo[Cys-Glu-(β-(1,2,4-triazol-3-yl))-D-Ala)-D-Phe-Arg-Trp-Cys]-NH2 [Compound 107]	≥ 500
Ac-cyclo[Cys-Glu-His-D-Phe-Arg-Trp-Cys]-Ser-Pro-NH2 [Compound 36]	127
Ac-Tyr-Arg-cyclo[Cys-Phe-His-D-Phe-Arg-Trp-Cys]-NH2 [Compound 19]	28
Ac-Tyr-Arg-cyclo[Cys-Trp-His-D-Phe-Arg-Trp-Cys]-NH2 [Compound 23]	13
Ac-Tyr-Arg-cyclo[hCys-Glu-His-D-Phe-Arg-Trp-Cys]-NH2 [Compound 166]	≥ 500
Ac-cyclo[Cys-Lys-His-D-Phe-Arg-Trp-Cys]-NH2 [Compound 16]	303

Substance	Ki [nM]
Ac-Tyr-Arg-cyclo[Cys-Glu-His-D-Phe-Arg-Trp-Cys]-Glu-NH2 [Compound 118]	127
N-succinyl-Tyr-Arg-cyclo[Cys-Glu-His-D-Phe-Arg-Trp-Cys]-OH [Compound 131]	≥ 500
Ac-Tyr-Arg-cyclo[Cys-Glu-His-(4-Me-D-Phe)-Arg-Trp-Cys]-NH2 [Compound 92]	8.56
Ac-Cit-cyclo[Cys-Glu-His-D-Phe-Arg-Trp-Cys]-NH2 [Compound 55]	174
Ac-D-Arg-cyclo[Cys-Glu-His-D-Phe-Arg-Trp-Cys]-OH [Compound 53]	> 500
Ac-Tyr-Arg-cyclo[Cys-Gln-His-D-Phe-Arg-Trp-Cys]-OMe [Compound 10]	18.6
Ac-cyclo[hCys-His-D-Phe-Arg-Trp-hCys]-NH2 [Compound 193]	95.4
5-guanidinovaleryl-cyclo[hCys-His-D-Phe-Arg-Trp-Cys]-NH2 [Compound 149]	1.01
Ac-Tyr-Arg-cyclo[Cys-Glu-(1-Bom-His)-D-Phe-Arg-Trp-Cys]-NH2 [Compound 101]	26.4
Ac-Arg-cyclo[Cys-Glu-His-(4-Cl-D-Phe)-Arg-Trp-Cys]-NH2 [Compound 50]	2.89
Tyr-Arg-cyclo[hCys-His-D-Phe-Arg-Trp-Cys]-NH2 [Compound 162]	2.79
Arg-cyclo[Cys-His-D-Phe-Arg-Trp-hCys]-NH2 [Compound 186]	182
Ac-Tyr-Arg-cyclo[Cys-Glu-(β-(pyridin-4-yl)-Ala)-D-Phe-Arg-Trp-Cys]-NH2 [Compound 113]	260
(4-benzenesulfonamide)butyryl-cyclo[hCys-His-D-Phe-Arg-Trp-penicillamine]-NH2 [Compound 176]	19.2
cyclo[hCys-His-(4-Cl-D-Phe)-Arg-Trp-Cys]-NH2 [Compound 135]	1.02
Ac-Tyr-Arg-cyclo[Cys-Glu-His-D-Phe-Arg-Trp-Cys]-NH-(CH2)6-NH2 [Compound 117]	14.6
Ac-Tyr-Arg-cyclo[Cys-Glu-(1-Me-D-His)-(4-Br-D-Phe)-Arg-Trp-Cys]-NH2 [Compound 91]	386
N-cyclohexanecarbonyl-cyclo[hCys-His-D-Phe-Arg-Trp-penicillamine]-NH2 [Compound 172]	3.68
N-(2-naphthalenesulfonyl)-cyclo[hCys-His-D-Phe-Arg-Trp-Cys]-NH2 [Compound 151]	41.4
Ac-Arg-cyclo[Cys-Glu-His-D-Phe-Arg-Trp-Cys]-NH2 [Compound 48]	29.3
N-hexanoyl-cyclo[hCys-His-D-Phe-Arg-Trp-Cys]-NH2 [Compound 145]	5.79
N-succinyl-Tyr-Arg-cyclo[Cys-Glu-His-D-Phe-Arg-Trp-Cys]-NH2 [Compound 74]	107
Ac-cyclo[hCys-His-Phe-Arg-Trp-Cys]-NH2 [Compound 136]	> 500
Arg-cyclo[Cys-Glu-His-D-Phe-Arg-Trp-Cys]-OH [Compound 45]	≥ 500
Ac-cyclo[Cys-Leu-His-D-Phe-Arg-Trp-Cys]-NH2 [Compound 15]	82.7
Ac-Tyr-Arg-cyclo[Cys-Thr-His-D-Phe-Arg-Trp-Cys]-NH2 [Compound 22]	30.3
Ac-Tyr-Arg-cyclo[Cys-Glu-(5-Me-His)-D-Phe-Arg-Trp-Cys]-NH2 [Compound 97]	17.9

Substance	Ki [nM]
Ac-Tyr-Arg-cyclo[Cys-Pro-His-D-Phe-Arg-Trp-Cys]-NH2 [Compound 20]	54.7
Ac-Arg-cyclo[Cys-His-D-Phe-Arg-Trp-hCys]-NH2 [Compound 189]	90.9
Ac-Tyr-Ser-cyclo[Cys-Glu-His-D-Phe-Arg-Trp-Cys]-NH2 [Compound 129]	273
Ac-Tyr-Arg-cyclo[Cys-Glu-His-(4-Br-D-Phe)-Arg-Trp-Cys]-NH2 [Compound 89]	2.54
Ac-cyclo[Cys-Glu-His-(4-F-D-Phe)-Arg-Trp-Cys]-NH2 [Compound 31]	104
Tyr-Arg-cyclo[Cys-Glu-His-D-Phe-Arg-Trp-Cys]-NH—(CH2)6—NH2 [Compound 70]	9.93
Ac-cyclo[Cys-Glu-His-D-Phe-Arg-Trp-Cys]-Lys-Pro-NH2 [Compound 35]	28.6
Ac-Tyr-Arg-cyclo[Cys-Glu-His-D-Phe-Arg-Trp-Cys]-Ser-Pro-NH2 [Compound 119]	16.1
Ac-Tyr-Arg-cyclo[Cys-Ile-His-D-Phe-Arg-Trp-Cys]-NH2 [Compound 14]	32.2
N-propionyl-cyclo[Cys-Glu-His-D-Phe-Arg-Trp-Cys]-NH2 [Compound 37]	316
Ac-Tyr-Arg-cyclo[hCys-His-D-Phe-Arg-Trp-hCys]-NH2 [Compound 196]	85.1
Ac-Tyr-Arg-cyclo[hCys-His-D-Phe-Arg-Trp-Cys]-NH2 [Compound 164]	9.04
N-(4-phenylsulfonamido-4-oxo-butyryl)-cyclo[hCys-His-D-Phe-Arg-Trp-Cys]-NH2 [Compound 152]	42.4
Ac-cyclo[Cys-His-(4-Cl-D-Phe)-Arg-Trp-hCys]-NH2 [Compound 185]	12.7
Ac-cyclo[Cys-Gln-His-D-Phe-Arg-Trp-Cys]-NH2 [Compound 8]	27.6
Ac-Tyr-Arg-cyclo[Cys-Glu-(β-(1,3-thiazol-4-yl)-Ala)-D-Phe-Arg-Trp-Cys]-NH2 [Compound 112]	≥ 500
Ac-Tyr-Arg-cyclo[Cys-Glu-His-D-Phe-Arg-Trp-Cys]-Ser alcohol [Compound 116]	69.3
Ac-Tyr-Arg-cyclo[Cys-Glu-(4-phenyl-1H-imidazol-2-yl-Ala)-D-Phe-Arg-Trp-Cys]-NH2 [Compound 103]	20.3
Tyr-Arg-cyclo[Cys-Gly-His-D-Phe-Arg-Trp-Cys]-NH2 [Compound 11]	126
Ac-Lys(ipr)-cyclo[Cys-Glu-His-D-Phe-Arg-Trp-Cys]-NH2 [Compound 59]	73.6
Ac-Tyr-Arg-cyclo[Cys-Ala-His-D-Phe-Arg-Trp-Cys]-NH2 [Compound 3]	34.9
N-butyryl-cyclo[Cys-Glu-His-D-Phe-Arg-Trp-Cys]-NH2 [Compound 38]	320
Arg-cyclo[hCys-(1-Me-His)-D-Phe-Arg-Trp-Cys]-NH2 [Compound 156]	35.1
N-(2-naphthalenesulfonyl)-D-Arg-cyclo[Cys-Glu-His-D-Phe-Arg-Trp-Cys]-NH2 [Compound 64]	13.2
Ac-Arg-cyclo[Cys-Cya-His-D-Phe-Arg-Trp-Cys]-NH2 [Compound 26]	58.8
phenylsulfonyl-Gly-cyclo[hCys-His-D-Phe-Arg-Trp-Cys]-NH2 [Compound 161]	1.67
